Measured values: US20140100156A1 (SANOFI, priority 2012, published 2014)

Sequences of proteins named here, by UniProt entry; tags and fusion partners are left off. Residues count along the entry.
UniProt P43220, 24-463: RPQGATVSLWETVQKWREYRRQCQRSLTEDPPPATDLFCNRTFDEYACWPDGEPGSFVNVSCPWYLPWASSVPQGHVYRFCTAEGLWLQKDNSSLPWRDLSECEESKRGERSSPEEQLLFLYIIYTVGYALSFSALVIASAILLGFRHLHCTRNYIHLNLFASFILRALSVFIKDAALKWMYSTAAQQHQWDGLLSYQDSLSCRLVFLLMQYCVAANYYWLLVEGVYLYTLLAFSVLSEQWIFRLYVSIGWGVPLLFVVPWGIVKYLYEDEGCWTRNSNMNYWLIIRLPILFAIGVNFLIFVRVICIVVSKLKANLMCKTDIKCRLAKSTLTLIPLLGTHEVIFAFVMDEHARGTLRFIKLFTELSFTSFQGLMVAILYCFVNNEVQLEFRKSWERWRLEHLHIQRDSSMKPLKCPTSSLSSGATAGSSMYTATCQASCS
UniProt P47871, 26-477: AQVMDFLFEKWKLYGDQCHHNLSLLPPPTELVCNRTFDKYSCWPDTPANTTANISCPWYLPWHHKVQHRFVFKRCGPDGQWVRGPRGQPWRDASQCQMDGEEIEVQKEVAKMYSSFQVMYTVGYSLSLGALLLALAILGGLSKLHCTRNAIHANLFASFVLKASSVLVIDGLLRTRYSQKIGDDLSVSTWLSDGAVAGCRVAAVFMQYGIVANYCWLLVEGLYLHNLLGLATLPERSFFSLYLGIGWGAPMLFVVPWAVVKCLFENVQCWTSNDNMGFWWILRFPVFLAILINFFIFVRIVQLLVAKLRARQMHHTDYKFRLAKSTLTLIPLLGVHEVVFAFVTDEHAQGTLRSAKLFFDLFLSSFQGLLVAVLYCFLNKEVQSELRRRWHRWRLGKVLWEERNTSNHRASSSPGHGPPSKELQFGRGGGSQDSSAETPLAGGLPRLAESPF

What was measured:
[1] = target: T1, human GLP-1 receptor (Homo sapiens, UniProt P43220); assay: cAMP response (HTRF) of HEK-293 cells stably expressing human GLP-1 receptor; assay type: cell-based; details: Table 5; cAMP, HEK-293; read-out: EC50 hGLP-1R
T1 construct: expressed in transfected cells; host or cells: HEK-293

[2] = target: T2, human glucagon receptor (Homo sapiens, UniProt P47871); assay: cAMP response (HTRF) of HEK-293 cells stably expressing human glucagon receptor; assay type: cell-based; details: Table 5; cAMP, HEK-293; read-out: EC50 hGlucagon-R
T2 construct: expressed in transfected cells; host or cells: HEK-293

SMILES | EC50 [1] | EC50 [2]
CCCCCCCCCCCCCCCC(=O)NCCCC[C@H](NC(=O)[C@H](CCC(N)=O)NC(=O)[C@H](CCCCN)NC(=O)[C@H](CO)NC(=O)[C@H](CC(C)C)NC(=O)[C@H](CC(=O)O)NC(=O)[C@H](CO)NC(=O)[C@@H](NC(=O)[C@H](Cc1ccccc1)NC(=O)[C@@H](NC(=O)CNC(=O)[C@H](CCC(N)=O)NC(=O)[C@@H](CO)NC(=O)[C@@H](N)Cc1c[nH]cn1)[C@@H](C)O)[C@@H](C)O)C(=O)N[C@@H](CCC(=O)O)C(=O)N[C@@H](CO)C(=O)N[C@@H](CCCNC(=N)N)C(=O)N[C@@H](C)C(=O)N[C@@H](C)C(=O)NC(C)(C)C(=O)N[C@@H](CC(C)C)C(=O)N[C@@H](Cc1ccccc1)C(=O)N[C@H](C(=O)N[C@@H](CCC(=O)O)C(=O)N[C@@H](Cc1c[nH]c2ccccc12)C(=O)N[C@@H](CC(C)C)C(=O)N[C@@H](CCCCN)C(=O)N[C@@H](CC(N)=O)C(=O)NCC(=O)NCC(=O)N1CCC[C@H]1C(=O)N[C@@H](CO)C(=O)N[C@@H](CO)C(=O)NCC(=O)N[C@@H](C)C(=O)N1CCC[C@H]1C(=O)N1CCC[C@H]1C(=O)N1CCC[C@H]1C(=O)N[C@@H](CO)C(N)=O)[C@@H](C)CC [compound 122] | 24.9 pM | 156 pM
CCCCCCCCCCCCCCCC(=O)N[C@@H](CCC(=O)NCCCC[C@H](NC(=O)[C@H](CCC(N)=O)NC(=O)[C@H](CCCCN)NC(=O)[C@H](CO)NC(=O)[C@H](CC(C)C)NC(=O)[C@H](CC(=O)O)NC(=O)[C@H](CO)NC(=O)[C@@H](NC(=O)[C@H](Cc1ccccc1)NC(=O)[C@@H](NC(=O)CNC(=O)[C@H](CCC(N)=O)NC(=O)[C@@H](CO)NC(=O)[C@@H](N)Cc1c[nH]cn1)[C@@H](C)O)[C@@H](C)O)C(=O)N[C@@H](CC(=O)O)C(=O)N[C@@H](CO)C(=O)N[C@@H](CCC(N)=O)C(=O)N[C@@H](C)C(=O)N[C@@H](C)C(=O)N[C@@H](CCC(N)=O)C(=O)N[C@@H](CC(=O)O)C(=O)N[C@@H](Cc1ccccc1)C(=O)N[C@H](C(=O)N[C@@H](CCC(=O)O)C(=O)N[C@@H](Cc1c[nH]c2ccccc12)C(=O)N[C@@H](CC(C)C)C(=O)N[C@@H](CCCCN)C(=O)N[C@@H](CCCNC(=N)N)C(=O)NCC(=O)NCC(=O)N1CCC[C@H]1C(=O)N[C@@H](CO)C(=O)N[C@@H](CO)C(=O)NCC(=O)N[C@@H](C)C(=O)N1CCC[C@H]1C(=O)N1CCC[C@H]1C(=O)N1CCC[C@H]1C(=O)N[C@@H](CO)C(N)=O)[C@@H](C)CC)C(=O)O [compound 123] | 2.6 pM | 9.7 pM
CCCCCCCCCCCCCCCC(=O)N[C@@H](CCC(=O)NCCCC[C@H](NC(=O)[C@H](CCC(N)=O)NC(=O)[C@H](CCCCN)NC(=O)[C@H](CO)NC(=O)[C@H](CC(C)C)NC(=O)[C@H](CC(=O)O)NC(=O)[C@H](CO)NC(=O)[C@@H](NC(=O)[C@H](Cc1ccccc1)NC(=O)[C@@H](NC(=O)CNC(=O)[C@H](CCC(N)=O)NC(=O)[C@@H](CO)NC(=O)[C@@H](N)Cc1c[nH]cn1)[C@@H](C)O)[C@@H](C)O)C(=O)N[C@@H](CC(=O)O)C(=O)N[C@@H](CO)C(=O)N[C@@H](CCC(N)=O)C(=O)N[C@@H](C)C(=O)N[C@@H](C)C(=O)N[C@@H](CCC(N)=O)C(=O)N[C@@H](CC(=O)O)C(=O)N[C@@H](Cc1ccccc1)C(=O)N[C@H](C(=O)N[C@@H](CCC(=O)O)C(=O)N[C@@H](Cc1c[nH]c2ccccc12)C(=O)N[C@@H](CC(C)C)C(=O)N[C@@H](CCCCN)C(=O)N[C@@H](CCCNC(=N)N)C(=O)N[C@@H](C)C(=O)NCC(=O)N1CCC[C@H]1C(=O)N[C@@H](CO)C(=O)N[C@@H](CO)C(=O)NCC(=O)N[C@@H](C)C(=O)N1CCC[C@H]1C(=O)N1CCC[C@H]1C(=O)N1CCC[C@H]1C(=O)N[C@@H](CO)C(N)=O)[C@@H](C)CC)C(=O)O [compound 124] | 3 pM | 8.4 pM
